Protein sequences, listed by entry. Tags and fused reporters are not part of them. Residues count along the entry.
UniProt P13631, 185-419 limits assumed: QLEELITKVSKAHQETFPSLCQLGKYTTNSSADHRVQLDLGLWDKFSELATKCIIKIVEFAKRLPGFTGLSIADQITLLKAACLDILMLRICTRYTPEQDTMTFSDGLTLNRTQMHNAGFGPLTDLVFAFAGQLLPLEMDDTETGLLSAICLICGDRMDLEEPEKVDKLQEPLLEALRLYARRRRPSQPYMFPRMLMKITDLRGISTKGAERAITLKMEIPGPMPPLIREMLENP

According to PMC6954720, “Discovery of retinoic acid receptor agonists as proliferators of cardiac progenitor cells through a phenotypic screening approach” (Stem Cells Translational Medicine, 2019):

Target: RARG (gamma) ligand binding domain (Homo sapiens, UniProt P13631)
Assay: RAR LBD-SRC1-2 coactivator peptide recruitment assay, agonist format, RARG
Assay type: biochemical
Protocol: RAR ligand binding domain (LBD)‐SRC1‐2 coactivator peptide (NCOA1_677‐700 biotinylated) recruitment assays were established for the three RAR isotypes RARA (alpha), RARB (beta), and RARG (gamma) to determine relative potencies. […] A total of 0.4 μL of a fixed concentration range of test ligands dissolved in dimethyl sulphoxide (DMSO) was added to assay plates using an acoustic liquid dispenser. […] The raw data were transformed to % effect using the equation: compound % effect = 100 × [(X − min)/(max − min)], where X represents the effect in the presence of test compound and max and min are the effects in presence of the maximum and minimum controls, respectively.
The data were plotted to generate concentration‐response profiles and the concentration‐response curves were fit to the data using the four‐parameter logistic smart fit method in the Genedata Screener software (Genedata, Inc).

Question: How did the “RARγ pEC50 (% top effect): % top effect” value turn out when `CC1=C(/C=C/C(C)=C/C=C/C(C)=C/C(=O)O)C(C)(C)CCC1` [ATRA, all‐trans retinoic acid] was run?
Answer: The value was 104%.
